System: Bacteroides ovatus GUS (BoGUS)
Details: pNPG as substrate; optimal pH 5.0; apparent value estimated at low pNPG concentrations

Structure (SMILES): O=C(O)[C@H]1O[C@@H](Oc2ccc([N+](=O)[O-])cc2)[C@H](O)[C@@H](O)[C@@H]1O [pNPG, p-nitrophenol-β-D-glucuronide]
- Km: 1380 ± 10 µM
- kcat (s^−1): 0.48 ± 0.03^b s^−1
